Drawing on US20240325396A1, “METHODS FOR TREATING CANCER” (Allarity Therapeutics, Inc., priority 2023, published 2024), this text covers IC50 for one molecule.

Sequences of proteins named here, by UniProt entry; tags and fusion partners are left off. A change or cut given only in a name is not applied to a line headed by its entry.
UniProt O88554: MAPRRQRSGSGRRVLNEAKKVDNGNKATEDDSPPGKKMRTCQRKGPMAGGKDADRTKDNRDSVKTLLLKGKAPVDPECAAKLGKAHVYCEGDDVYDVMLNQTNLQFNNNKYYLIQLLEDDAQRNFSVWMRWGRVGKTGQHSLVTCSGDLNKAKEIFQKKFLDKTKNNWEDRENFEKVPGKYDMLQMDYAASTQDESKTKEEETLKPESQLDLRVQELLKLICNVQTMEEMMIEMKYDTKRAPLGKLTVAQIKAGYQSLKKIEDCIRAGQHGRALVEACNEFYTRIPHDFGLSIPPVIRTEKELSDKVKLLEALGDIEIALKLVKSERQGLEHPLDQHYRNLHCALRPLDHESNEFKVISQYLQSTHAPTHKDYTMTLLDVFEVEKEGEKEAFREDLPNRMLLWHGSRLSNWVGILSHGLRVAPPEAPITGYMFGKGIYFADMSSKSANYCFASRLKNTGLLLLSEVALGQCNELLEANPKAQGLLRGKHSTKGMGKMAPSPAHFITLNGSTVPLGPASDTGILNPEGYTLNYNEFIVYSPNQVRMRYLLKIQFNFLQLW

In this assay the target is mouse recombinant PARP2 (Mus musculus, UniProt O88554). To be noted: read-out: IC50, PARP2 inhibition; cell-free assay in vitro.

Regarding `O=c1[nH]nc2c3c(cccc13)N=C(CN1Cc3ccccc3C1)N2` [stenoparib, 8-(isoindolin-2-ylmethyl)-2,9-dihydro-3H-pyridazino [3,4,5-de] quinazolin-3-one], the IC50 was determined as 1.2 nM.
